Test results as given in PubChem BioAssay (NCATS).
The list shows a part of the results, in another mix than the full data. Inconclusive results are not listed. Activity calls are given as the source filed them. Unless noted, calls come from the whole dose curve; as a rule, active = well fitted curve in the direction sought with a large enough effect; inconclusive = small, poorly fitted or top-dose-only effect, or another doubt; inactive = no such curve, though single readings can be large; an effect the other way counts as inactive or inconclusive.

Amino acid sequences for entries named in this document (tags omitted). A change or cut given only in a name is not applied to a line headed by its entry.
UniProt P07203, whole entry: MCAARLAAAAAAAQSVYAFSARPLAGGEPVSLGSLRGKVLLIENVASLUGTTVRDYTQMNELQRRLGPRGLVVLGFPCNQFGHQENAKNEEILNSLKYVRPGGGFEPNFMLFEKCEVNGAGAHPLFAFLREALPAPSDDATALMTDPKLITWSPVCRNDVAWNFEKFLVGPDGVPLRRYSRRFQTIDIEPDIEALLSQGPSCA
UniProt P36969, whole entry: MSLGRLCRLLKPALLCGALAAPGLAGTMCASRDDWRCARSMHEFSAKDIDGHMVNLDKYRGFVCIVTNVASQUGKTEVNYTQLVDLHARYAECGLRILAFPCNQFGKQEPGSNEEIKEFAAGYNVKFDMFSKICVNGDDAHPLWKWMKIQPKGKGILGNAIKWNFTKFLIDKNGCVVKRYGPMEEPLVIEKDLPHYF
UniProt O95398, whole entry: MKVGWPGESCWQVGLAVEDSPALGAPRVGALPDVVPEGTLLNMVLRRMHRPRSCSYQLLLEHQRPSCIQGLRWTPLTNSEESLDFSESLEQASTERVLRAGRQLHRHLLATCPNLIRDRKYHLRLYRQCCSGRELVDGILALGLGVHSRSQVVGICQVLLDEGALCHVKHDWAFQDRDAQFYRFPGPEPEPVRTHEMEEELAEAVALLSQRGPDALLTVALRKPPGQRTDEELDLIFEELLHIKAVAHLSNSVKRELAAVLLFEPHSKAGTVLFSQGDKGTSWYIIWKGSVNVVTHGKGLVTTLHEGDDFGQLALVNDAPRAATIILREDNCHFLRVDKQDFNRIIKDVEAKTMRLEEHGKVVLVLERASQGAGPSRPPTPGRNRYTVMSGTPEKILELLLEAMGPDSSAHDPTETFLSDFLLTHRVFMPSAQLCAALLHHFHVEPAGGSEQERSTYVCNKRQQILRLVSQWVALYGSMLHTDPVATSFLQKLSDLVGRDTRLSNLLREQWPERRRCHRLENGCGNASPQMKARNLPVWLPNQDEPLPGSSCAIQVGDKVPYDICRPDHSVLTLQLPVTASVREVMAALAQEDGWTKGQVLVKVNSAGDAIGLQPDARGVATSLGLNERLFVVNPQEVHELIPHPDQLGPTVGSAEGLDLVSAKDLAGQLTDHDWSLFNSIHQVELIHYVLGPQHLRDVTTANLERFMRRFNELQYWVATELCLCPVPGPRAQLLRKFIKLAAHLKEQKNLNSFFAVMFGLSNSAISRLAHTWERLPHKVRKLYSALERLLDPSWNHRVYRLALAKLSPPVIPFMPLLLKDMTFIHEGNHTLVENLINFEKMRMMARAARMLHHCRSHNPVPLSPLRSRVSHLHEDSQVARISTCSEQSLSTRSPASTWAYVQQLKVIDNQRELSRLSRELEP
UniProt P11712, whole entry: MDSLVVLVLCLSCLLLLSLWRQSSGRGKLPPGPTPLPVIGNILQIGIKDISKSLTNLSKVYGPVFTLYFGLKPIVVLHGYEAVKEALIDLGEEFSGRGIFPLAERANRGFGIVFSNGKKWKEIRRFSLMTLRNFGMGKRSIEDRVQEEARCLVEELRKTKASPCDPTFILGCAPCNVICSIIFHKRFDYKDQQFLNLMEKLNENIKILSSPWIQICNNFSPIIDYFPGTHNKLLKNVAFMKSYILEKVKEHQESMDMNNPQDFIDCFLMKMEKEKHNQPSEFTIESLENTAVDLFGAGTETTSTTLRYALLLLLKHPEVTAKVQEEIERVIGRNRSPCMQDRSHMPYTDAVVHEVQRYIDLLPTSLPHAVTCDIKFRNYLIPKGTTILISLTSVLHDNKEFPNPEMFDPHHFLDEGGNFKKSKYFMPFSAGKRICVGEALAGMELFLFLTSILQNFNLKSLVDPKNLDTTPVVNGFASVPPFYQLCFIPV
UniProt P08684, whole entry: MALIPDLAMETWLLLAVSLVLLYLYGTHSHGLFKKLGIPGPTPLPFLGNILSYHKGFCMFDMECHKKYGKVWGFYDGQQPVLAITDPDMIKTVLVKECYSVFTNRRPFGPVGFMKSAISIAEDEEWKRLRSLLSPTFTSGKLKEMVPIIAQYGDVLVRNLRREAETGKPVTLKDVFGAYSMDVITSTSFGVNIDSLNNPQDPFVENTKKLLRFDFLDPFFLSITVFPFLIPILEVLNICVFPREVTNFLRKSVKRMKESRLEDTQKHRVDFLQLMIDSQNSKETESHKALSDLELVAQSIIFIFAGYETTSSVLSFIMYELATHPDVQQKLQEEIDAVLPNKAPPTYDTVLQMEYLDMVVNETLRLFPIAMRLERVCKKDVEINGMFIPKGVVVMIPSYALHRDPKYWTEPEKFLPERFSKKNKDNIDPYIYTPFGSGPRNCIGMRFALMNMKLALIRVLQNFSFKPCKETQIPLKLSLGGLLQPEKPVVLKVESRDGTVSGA

Assays:
[1] = Primary qHTS for inhibitors of nuclear receptor binding SET domain protein 2 (NSD2) in an isogenic RCH-ACV NSD2 p.E1099K mutant (9B) (AID 1645876); details: RCH-ACV NSD2 E1099K (9B) viability, CellTiter-Glo, 72 h; at 44.9 µM (top of the series); note: % is set by controls: 0 for no effect and ±100 for the full control effect; nearly all actives have a fitted effect of over 70% in size
[2] = Primary qHTS for inhibitors of nuclear receptor binding SET domain protein 2 (NSD2) in an RCH-ACV wild type WT cells (2C) (AID 1645877); details: RCH-ACV (leukaemia line) NSD2 WT (2C) viability, CellTiter-Glo, 72 h; at 44.9 µM (top of the series); note: % is set by controls: 0 for no effect and ±100 for the full control effect; nearly all actives have a fitted effect of over 70% in size
[3] = target: Glutathione peroxidase 1 (Homo sapiens) (UniProt P07203); assay: Primary qHTS Assay for Inhibitors of Recombinant Selenoprotein Glutathione Peroxidase 1 (GPX1) (AID 1845191); details: recombinant GPX1, GR-coupled NADPH fluorescence, 15 min; activity, negative = inhibition: at 48.8 µM (top of the series); note: nearly all actives have a fitted effect of over 65% in size; for activity, negative = inhibition: % is set by controls: 0 for no effect and ±100 for the full control effect
Method in brief: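 GPX1 10 nM, GR 100 nM, GSH 1 mM, NADPH 0.5 mM, CHP 0.5 mM (final). 30-min cpd preincubation, RT. Ex340/Em450 read t=0, t=15 min.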

[4] = target: Phospholipid hydroperoxide glutathione peroxidase GPX4 (Homo sapiens) (UniProt P36969); assay: Primary qHTS Assay for Inhibitors of Recombinant Selenoprotein Glutathione Peroxidase 4 (GPX4) (AID 1845192); details: recombinant GPX4, GR-coupled NADPH fluorescence, 15 min; activity change, negative = inhibition: at 50 µM (top of the series); note: nearly all actives have a fitted effect of over 65% in size; for activity change, negative = inhibition: % is set by controls: 0 for no effect and ±100 for the full control effect
Method in brief: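 qHTS, GR-coupled: GPX4 200 nM + cpd 30 min RT → GSH 1 mM, NADPH 0.5 mM, GR 100 nM → CHP 0.5 mM start; fluor 340/450 at t0 and t15 min; no-enzyme wells as control.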

[5] = Quantitative High-Throughput drug screen in 47 multiple myeloma cell lines against the NCATS MIPE library collection: FR4_PLB cell viability assay (AID 1918924;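 note: 100% = DMSO-treated cells and 0% = wells with media only; nearly all actives have a fitted effect of over 35% in size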); details: FR4_PLB myeloma cells viability, CellTiter-Glo ATP, 48 h; at 45.8 µM (top of the series)
Method in brief: (§1)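 Relative luminescence from CellTiter-Glo served as the viability signal, referenced to DMSO-treated (100%) and cell-free medium (0%) controls. Treatment lasted 48 hours at 37C with 500 cells per well.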

[6] = Quantitative High-Throughput drug screen in 47 multiple myeloma cell lines against the NCATS MIPE library collection: EJM_DSMZ cell viability assay (AID 1918926;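 note: 100% = DMSO-only wells and 0% = media-only wells without cells; nearly all actives have a fitted effect of over 30% in size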); details: EJM myeloma cell viability, CellTiter-Glo ATP, 48 h; at 45.8 µM (top of the series)
Method in brief: (§2)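 Steps: seed 500 cells per well; pin-transfer MIPE 4.0 library; incubate 48 h at 37C, 5% CO2, humidified; add CellTiter-Glo, 5 min room temperature; read luminescence.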

[7] = Quantitative High-Throughput drug screen in 47 multiple myeloma cell lines against the NCATS MIPE library collection: AMO1_DSMZ cell viability assay (AID 1918927;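 note: 100% = DMSO only wells and 0% = cell-free media only wells; nearly all actives have a fitted effect of over 30% in size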); details: AMO1 myeloma cells viability, CellTiter-Glo ATP luminescence, 48 h; at 45.8 µM (top of the series)
Method in brief: as §2

[8] = Quantitative High-Throughput drug screen in 47 multiple myeloma cell lines against the NCATS MIPE library collection: ARP1_JJKsccF8 cell viability assay (AID 1918928; note: nearly all actives have a fitted effect of over 40% in size); details: ARP1 myeloma cells viability, CellTiter-Glo ATP, 48 h; at 45.8 µM (top of the series)
Method in brief: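 Viability screen: myeloma cells (500/well) incubated 48 h at 37 °C, humidified 5% CO2, with pinned library compounds; CellTiter-Glo added, luminescence read; DMSO wells set 100%, medium-only wells 0%.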

[9] = Quantitative High-Throughput drug screen in 47 multiple myeloma cell lines against the NCATS MIPE library collection: ARD_JJKsccE7 cell viability assay (AID 1918929;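 note: 100% = DMSO-only wells and 0% = media-only wells without cells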); details: ARD myeloma cell line viability, CellTiter-Glo, 48 h; at 45.8 µM (top of the series)
Method in brief: as §2

[10] = Quantitative High-Throughput drug screen in 47 multiple myeloma cell lines against the NCATS MIPE library collection: Karpas620_DSMZ cell viability assay (AID 1918959); details: Karpas620 myeloma viability, CellTiter-Glo ATP luminescence, 48 h; at 45.8 µM (top of the series);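 note: 100% = DMSO-only wells and 0% = cell-free media-only wells; nearly all actives have a fitted effect of over 30% in size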
Method in brief: as §1

[11] = Quantitative High-Throughput drug screen in 47 multiple myeloma cell lines against the NCATS MIPE library collection: Karpas417_ECACC cell viability assay (AID 1918961); details: Karpas417 myeloma viability, CellTiter-Glo ATP luminescence, 48 h; at 45.8 µM (top of the series);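 note: 100% = DMSO only wells and 0% = media only wells without cells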
Method in brief: as §1

[12] = Quantitative High-Throughput drug screen in 47 multiple myeloma cell lines against the NCATS MIPE library collection: JIM3_ECACC cell viability assay (AID 1918963;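 note: 100% = DMSO-only wells and 0% = media-only wells without cells; nearly all actives have a fitted effect of over 35% in size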); details: JIM3 myeloma viability, CellTiter-Glo ATP, 48 h; at 45.8 µM (top of the series)
Method in brief: as §1

[13] = target: Luciferin 4-monooxygenase (Photinus pyralis) (UniProt P08659); assay: Primary firefly luciferase (FLuc) qHTS assay for identification of artifact compounds. (AID 1845220); details: purified firefly luciferase, luminescence, 5 min; at 54.1 µM (top of the series);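 note: plate controls were DMSO vehicle for no effect and no enzyme for full effect; nearly all actives have a fitted effect of over 60% in size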
Method in brief: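 qHTS, 15 min compound preincubation with substrate (10 uM luciferin, 10 uM ATP) at RT, then 10 nM FLuc; 5 min; luminescence; % inhibition vs no-enzyme/DMSO controls, 4-parameter Hill fit.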

[14] = Primary fluorescence-based thiol-reactive (MSTI) qHTS assay for identification of artifact compounds. (AID 1845221); details: MSTI thiol-reactivity probe, 1 h; at 53.8 µM (top of the series);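 note: thiol-reactive compounds lower the probe fluorescence signal; nearly all actives have a fitted effect of over 65% in size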
Method in brief: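 In PBS pH 7.4 with 2% DMSO, each compound met 4 uM MSTI for one hour at ambient temperature, shielded from light, before fluorescence detection.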

[15] = tested on: Nanoluciferase (engineered Oplophorus gracilirostris luciferase); assay: Primary Nanoluciferase (NLuc) qHTS assay for identification of artifact compounds. (AID 1845222); details: NLuc-conditioned medium, Nano-Glo luminescence, 5 min; at 54.1 µM (top of the series)
Method in brief: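 Luminescence read-out of secreted NLuc in S16 cell conditioned medium (1:55); compounds tested with 15 min RT preincubation, then Nano-Glo substrate 1:100, 5 min. % inhibition vs no-enzyme and DMSO controls, 4-parameter Hill fit.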

[16] = Primary redox qHTS assay for identification of artifact compounds. (AID 1845223); details: Amplex Red/HRP redox cycling with DTT, fluorescence; at 53.8 µM (top of the series)
Method in brief: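 Redox-cycling detection via DTT (250 uM final) oxidation coupled to Amplex Red (25 uM)/HRP (250 mU/mL) in HBSS. 15 min preincubation plus 30 min after DTT, room temperature. Ex/Em 525/598 nm; 4-parameter Hill fit against DMSO and 10 uM DA3003.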

[17] = target: Rap guanine nucleotide exchange factor 3 (Homo sapiens) (UniProt O95398); assay: Confirmatory qHTS for antagonist of cAMP-regulated guanine nucleotide exchange factor 3 (EPAC1) (AID 1645880); details: EPAC1 Rap1B-BODIPY-GDP exchange, fluorescence; at 115 µM (top of the series);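 note: plate controls were DMSO only for no effect and full effect of the ATA control for full effect; nearly all actives have a fitted effect of over 55% in size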
Method in brief: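 Released BODIPY-GDP fluoresces less than Rap1-bound BODIPY-GDP; the signal is followed at 480/540 nm at 5-min intervals over 30 min, after 5 min at room temperature. Reactions contain 100 nM EPAC1, 250 nM RAP1B-BODIPY-GDP and 50 uM GDP; results are normalized to ATA and DMSO.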

[18] = target: Rap guanine nucleotide exchange factor 3 (Homo sapiens) (UniProt O95398); assay: Counterscreen qHTS for agonist of cAMP-regulated guanine nucleotide exchange factor 3 (EPAC1) (AID 1645889); details: EPAC1 Rap1B-BODIPY-GDP exchange, fluorescence; at 154 µM (top of the series); note: % of control where 0% means no effect; nearly all actives have a fitted effect of over 40% in size
Method in brief: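 Measured: fluorescence of BODIPY-GDP bound to Rap1B, which falls as exchange proceeds. Conditions include 50 uM competing GDP, 5 and 30 min reads, and a later cAMP challenge for antagonist detection.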

[19] = target: Cytochrome P450 2C9 (Homo sapiens) (UniProt P11712); assay: Cytochrome P450 family 2 subfamily C member 9 (CYP2C9) small molecule antagonists: luciferase qHTS assay (AID 1645842; active = well fitted curve in the direction sought with a large enough effect in the repeat runs; an effect the other way counts as inactive or inconclusive; note: % is set by controls: 0 for no effect and ±100 for the full control effect; nearly all actives have a fitted effect of over 55% in size); details: P450-Glo CYP2C9 enzyme assay, luciferin luminescence; at 57.4 µM (top of the series)
Method in brief: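 P450-Glo CYP2C9 system: proluciferin substrate with enzyme in mix containing 0.4% BSA, 10 min at room temperature, then NADPH regeneration solution added and incubated 1 h at 37C. Detection reagent stopped reaction; luminescence read after 20 min as RLU.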

[20] = target: Cytochrome P450 3A4 (Homo sapiens) (UniProt P08684); assay: Cytochrome P450 family 3 subfamily A member 4 (CYP3A4) small molecule antagonists: luciferase qHTS assay (AID 1645841; active = well fitted curve in the direction sought with a large enough effect in the repeat runs; an effect the other way counts as inactive or inconclusive; note: nearly all actives have a fitted effect of over 45% in size); details: P450-Glo CYP3A4 enzyme assay, luciferin luminescence; at 57.4 µM (top of the series)

CCOC(=O)C(=O)CBr
inactive: activity change, negative = viability loss [1] -1.94% | activity change, negative = cell killing [2] 4.98% | outcome [3] | outcome [4] | viability (% of DMSO control) [5] 119% | viability, % of control [6] 92.4% | viability, % of DMSO [7] 106% | viability [8] 91.7% | viability [9] 103% | viability (% of DMSO) [10] 93.9% | viability (% of DMSO) [11] 153% | viability, percent of control [12] 105%

CC(=O)N1CCc2ccc(N(C(=O)/C=C/c3cccc(C#N)c3)C3CCN(CCC4CCCC4)CC3)cc21
inactive: activity change, negative = viability loss [1] -8.98% | activity change, negative = cell killing [2] -23.4% | activity, negative = inhibition [3] 3.34% | activity change, negative = inhibition [4] -1.24% | activity change, negative = inhibition [13] 1.74% | activity change, negative = thiol reactive [14] 26.2% | activity, negative = inhibition [15] 0.627% | redox activity (% of DA3003) [16] 6.59%

CCCCn1nnnc1C(c1cc2ccccc2o1)N1CCC(n2c(=O)[nH]c3ccccc32)CC1 (stereo not drawn)
inactive: activity, negative = inhibition [17] -37.1% | activation [18] -19.5%

CCC(=O)N(c1ccccc1)C1CCNCC1
inactive: activity change, negative = inhibition [19] -3.61%

CCOC(=O)N1CCC(=O)CC1
inactive: activity change, negative = inhibition [20] 0% | activity change, negative = inhibition [19] 14.5% | activity change, negative = viability loss [1] 4.86% | activity change, negative = cell killing [2] 0.369%

CCC(c1nnnn1C(C)(C)C)N1CCC(n2c(=O)[nH]c3ccccc32)CC1 (stereo not drawn)
inactive: activity, negative = inhibition [17] -19.9%
